These are literature values, as cited in patent US12631641B2, “Method of identifying treatment responsive non-small cell lung cancer using anaplastic lymphoma kinase (ALK) as a marker” (Ventana Medical Systems, Inc., priority 2012, dated 2026).

This data set has as its system ALK-positive locally advanced or metastatic NSCLC. Conditions: for overall response rate: ALK-positive locally advanced or metastatic NSCLC patients.

Where two headings read alike, the source gives them in different places.

Take `C[C@@H](Oc1cc(-c2cnn(C3CCNCC3)c2)cnc1N)c1c(Cl)ccc(F)c1Cl` [crizotinib, Crizotinib]: the overall response rate (first of two clinical trials, N=136, 95% CI: 42%, 59%) is 50% and the overall response rate (second of two clinical trials, N=119, 95% CI: 52%, 70%) is 61%. In addition, where the note is “subjects with ALK-positive NSCLC treated with an ALK inhibitor (Kwak et al. 2010; Shaw et al. 2011)”, the overall response rates entry was “greater than 50%”.
